The source of these data is ChEMBL document CHEMBL4715860, “4-(Difluoromethyl)-5-(4-((3R,5S)-3,5-dimethylmorpholino)-6-((R)-3-methylmorpholino)-1,3,5-triazin-2-yl)pyridin-2-amine (PQR626), a Potent, Orally Available, and Brain-Penetrant mTOR Inhibitor for the Treatment of Neurological Disorders” (J Med Chem, 2020).

The species entered for experiment [1] is Homo sapiens. The experiment in a line: Selectivity ratio of Ki for inhibition of alexa fluor 647-labeled kinase tracer 314 binding to recombinant human N-terminal His-tagged p110alpha/p85alpha expressed in baculovirus expression system to Ki for inhibition of alexa fluor 647-labeled kinase tracer 314 binding to recombinant human N-terminal GST-tagged mTOR (1360 to 2549 residues) expressed in baculovirus expression system.

For experiment [2], the species on record is Homo sapiens. The experiment is described as follows: Selectivity ratio of Kd for binding affinity to wild-type human partial length PIK3CA (R108 to N1068 residues) expressed in HEK293 cells to Kd for binding affinity to wild-type human partial length MTOR (L1382 to W2549 residues) expressed in HEK293 cells. Type of experiment: cell-based.
The species named for experiment [3] is Homo sapiens. The experiment in a line: Selectivity ratio of Kd for binding affinity to wild-type human partial length PIK3CB (P118 to S1070 residues) expressed in HEK293 cells to Kd for binding affinity to wild-type human partial length MTOR (L1382 to W2549 residues) expressed in HEK293 cells. Type of experiment: cell-based.
The species entered for experiment [4] is Homo sapiens. The experiment is described as follows: Selectivity ratio of Kd for wild-type human partial length PIK3CD (R108 to Q1044 residues) expressed in HEK293 cells to Kd for binding affinity to wild-type human partial length MTOR (L1382 to W2549 residues) expressed in HEK293 cells. In kind it is cell-based.
The species entered for experiment [5] is Homo sapiens. The experiment is described as follows: Selectivity ratio of Kd for wild-type human partial length PIK3CG (S144 to A1102 residues) expressed in HEK293 cells to Kd for binding affinity to wild-type human partial length MTOR (L1382 to W2549 residues) expressed in HEK293 cells. In kind it is cell-based.

Turning to `C[C@@H]1COCCN1c1nc(-c2cnc(N)cc2C(F)F)nc(N2C3COCC2C3)n1`, the Ratio Ki in experiment [1] is more than 14.

In the case of `C[C@@H]1COCCN1c1nc(-c2cnc(N)cc2C(F)F)nc(N2CCOC[C@H]2CO)n1`, the Ratio Ki in experiment [1] was more than 20.

Regarding `CC[C@@H]1COCCN1c1nc(-c2cnc(N)cc2C(F)F)nc(N2CCOC[C@H]2C)n1`, the Ratio Ki in experiment [1] came out at 3.6.

As for `C[C@@H]1COCCN1c1nc(-c2cnc(N)cc2C(F)F)nc(N2[C@H](C)COC[C@@H]2C)n1`, in experiment [1], the Ratio Ki came to 80. Besides, the Selectivity ratio in experiment [2], in experiment [3], in experiment [4] and in experiment [5] was 164 throughout.

Regarding `C[C@@H]1COCCN1c1nc(-c2cnc(N)cc2C(F)F)nc(N2CCOC[C@H]2C)n1`, in experiment [1], the Ratio Ki is 39.

Consider `C[C@@H]1COCCN1c1nc(-c2cnc(N)cc2C(F)F)nc(N2[C@H](C)COC[C@H]2C)n1`, for which the Ratio Ki in experiment [1] was more than 43.

Regarding `C[C@@H]1COCCN1c1nc(-c2cnc(N)cc2C(F)F)nc(N2CCOCC23CCC3)n1`, the Ratio Ki in experiment [1] stood at 36.

Consider `C[C@@H]1COCCN1c1nc(-c2cnc(N)cc2C(F)F)nc(N2CCOCC2(C)C)n1`, for which the Ratio Ki in experiment [1] was determined as 100. The Selectivity ratio in experiment [2], in experiment [3], in experiment [4] and in experiment [5] was 90 throughout.

Turning to `C[C@@H]1COCCN1c1nc(-c2cnc(N)cc2C(F)F)nc(N2CCOCC2)n1`, the Ratio Ki in experiment [1] was determined as 2.5.

As to `C[C@@H]1COCCN1c1nc(-c2cnc(N)cc2C(F)F)nc(N2CCOC[C@@H]2C)n1`, the Ratio Ki in experiment [1] came out at 2.9.

`CC[C@H]1COCCN1c1nc(-c2cnc(N)cc2C(F)F)nc(N2CCOC[C@H]2C)n1`: the Ratio Ki in experiment [1] stood at 0.9.

On to `C[C@@H]1COCCN1c1nc(-c2cnc(N)cc2C(F)F)nc(N2[C@@H](C)COC[C@@H]2C)n1`, for which, in experiment [1], the Ratio Ki was found to be 37.

With `C[C@@H]1CN(c2nc(-c3cnc(N)cc3C(F)F)nc(N3CCOC[C@H]3C)n2)C[C@H](C)O1`, in experiment [1], the Ratio Ki was more than 24.

For `COC[C@@H]1COCCN1c1nc(-c2cnc(N)cc2C(F)F)nc(N2CCOC[C@H]2C)n1`, in experiment [1], the Ratio Ki is more than 43.

In the case of `C[C@@H]1COCCN1c1nc(-c2cnc(N)cc2C(F)F)nc(N2CCOC[C@@H]2CO)n1`, in experiment [1], the Ratio Ki is more than 35.
